Values quoted from earlier work in publication PMC8838460, “Expression, Purification, and Comparative Inhibition of Helicobacter pylori Urease by Regio-Selectively Alkylated Benzimidazole 2-Thione Derivatives” (Molecules, 2022).

Test system: Rat
Conditions: TOPKAT structural similar compounds; ref FMCHA2 -;C190;89; cited from earlier work

SMILES: Cc1cccc(NC(=S)N(C)C)c1
- Actual Endpoint (-log C), Rat Oral LD50: 1.946 -log C
